# Values quoted from earlier work, collected in patent US5972639A, “Fluorescence-based assays for measuring cell proliferation” (Irori, priority 1997, dated 1999).
# By UniProt entry, the sequences of proteins in these tests, tags left out. Residues count along the entry.
# UniProt P00634, 22-471 limits assumed: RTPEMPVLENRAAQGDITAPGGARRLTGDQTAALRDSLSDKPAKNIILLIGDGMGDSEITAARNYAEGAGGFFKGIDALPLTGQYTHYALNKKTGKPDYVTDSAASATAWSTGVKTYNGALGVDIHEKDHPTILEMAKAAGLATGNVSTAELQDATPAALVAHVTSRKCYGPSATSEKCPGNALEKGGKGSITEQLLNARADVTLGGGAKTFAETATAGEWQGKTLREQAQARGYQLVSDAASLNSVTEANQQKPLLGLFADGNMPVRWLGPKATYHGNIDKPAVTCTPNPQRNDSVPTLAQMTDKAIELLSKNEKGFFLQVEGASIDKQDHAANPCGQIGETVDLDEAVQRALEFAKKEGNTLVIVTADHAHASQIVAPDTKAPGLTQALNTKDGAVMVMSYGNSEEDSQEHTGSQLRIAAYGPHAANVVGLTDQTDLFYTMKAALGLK
# How the values were obtained:
# [1] = biological target: Alkaline phosphatase (E. coli) (Escherichia coli, UniProt P00634); details: cited from earlier work
# Acid phosphatase = details: identical products with acid phosphatases from the various sources; cited from earlier work
# [2] = test system: Alkaline phosphatase (intestinal); details: cited from earlier work
# Alkaline phosphatase = details: identical products with alkaline phosphatases from the various sources; cited from earlier work
# [3] = test system: Acid phosphatase (potato); details: cited from earlier work
smiles,measurement,setting,value
NCCSP(=O)(O)O,"Cleavage shown by high voltage paper, electrophoresis",[1],Yes
same,Km,[1],94 µM
same,V max,[1],4.2 × 10^-8 moles of substrate hydrolyzed
same,"Acid phosphatase, products identified",Acid phosphatase,No cleavage
same,"Cleavage shown by high voltage paper, electrophoresis",[2],Yes
same,Km,[2],250 µM
same,V max,[2],0.7 × 10^-8 moles of substrate hydrolyzed
same,"Alkaline phosphatase, products identified",Alkaline phosphatase,"Cysteamine, ^32 Pi"
same,"Cleavage shown by high voltage paper, electrophoresis",[3],No
